Measured affinities in a library of Ab-95 light chain variants

Data: MIT Lincoln Laboratory AlphaSeq set, Engelhart et al. 2022, doi:10.1038/s41597-022-01779-4, as distributed in FLAb.

Target peptide (SARS-CoV-2 spike, HR2 region): PDVDLGDISGINAS

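Phage display of a naive human antibody library on the peptide gave the parent. In library AAYL52, one, two or three CDR residues were substituted; doubles and triples were drawn at random. The assay is AlphaSeq: two haploid yeast populations carry antibody and antigen on their surface. Binding brings cells together so that they mate, and sequencing counts the barcode pairs among the diploids. Read counts were normalised to the haploid input and turned into Kd by a linear fit to BCL2-family pairs of known affinity, for each replicate. Each pool was mated in three replicate cultures.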

Each scFv is VH, the linker GGGGSGGGGSGGGGS, VL, as in the parent Ab-95, and differs from it in the CDRs of the light chain only.
VH: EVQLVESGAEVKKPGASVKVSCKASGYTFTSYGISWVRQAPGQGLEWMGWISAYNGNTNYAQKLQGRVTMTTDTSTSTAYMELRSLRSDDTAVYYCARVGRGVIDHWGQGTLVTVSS
VL: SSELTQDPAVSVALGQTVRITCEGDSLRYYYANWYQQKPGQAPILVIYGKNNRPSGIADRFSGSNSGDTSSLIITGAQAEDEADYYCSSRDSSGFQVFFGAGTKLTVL

Changes read parent residue, position, new residue, counted from the first residue of the VL shown.
Kd is apparent (estimated from mating counts) and averaged on the log scale over replicates with a signal. Smaller is tighter.
"not detected" means that the variant was in the library but no mating with the target was seen in any replicate; the authors take this as a sign of poor binding, and no number exists.
As a blank, each scFv also met three strains without target: over library AAYL52, 28% of these pairings were detected, typically at 8.2 µM and seldom below 800 nM. The control count says in how many pairings with the empty strains this scFv gave a signal.

changes,Kd (apparent),detected,empty controls
G24V G49E V97E,15 µM,1 of 3,6 of 9
G24T N51L Q96C,7.0 µM,1 of 3,4 of 9
R53L S92D F98L,1.9 µM,3 of 3,2 of 9
Y30D S88D F95S,1.6 µM,3 of 3,3 of 9
A32L S89C F95P,16 µM,1 of 3,2 of 9
P54R F95E V97S,780 nM,3 of 3,1 of 9
R90T Q96L,49 µM,2 of 3,2 of 9
S26A F98G,69 nM,3 of 3,1 of 9
R53C S89P F95T,4.0 µM,1 of 3,1 of 9
S55R F95C Q96C,450 nM,3 of 3,5 of 9
P54G D91N Q96M,7.3 µM,1 of 3,4 of 9
Y30H R53V S93V,34 nM,3 of 3,3 of 9
E23K D91Q G94H,64 nM,3 of 3,3 of 9
G49E D91M S92L,210 µM,1 of 3,1 of 9
G24C G94W V97L,13 µM,2 of 3,4 of 9
D25L N52I G94Q,50 µM,1 of 3,1 of 9
Y31P A32W N33L,11 µM,2 of 3,2 of 9
S26Y R53G Q96P,not detected,0 of 3,2 of 9
G24A S26P S88Y,4.5 µM,1 of 3,3 of 9
Y29V S88R F95L,9.7 µM,3 of 3,2 of 9
G24Q S26I Y29T,220 µM,1 of 3,4 of 9
G49V S55K R90D,1.7 µM,1 of 3,1 of 9
Y29N Y31L V97A,39 nM,3 of 3,3 of 9
N52W R90Y S92A,not detected,0 of 3,0 of 9
G49N K50Y N52L,490 nM,3 of 3,5 of 9
N52G F95Q F98H,590 nM,1 of 3,0 of 9
D25Y S88D F98N,not detected,0 of 3,0 of 9
L27S N52T D91S,7.1 µM,3 of 3,4 of 9
R28S A32T,380 nM,3 of 3,2 of 9
G24C S89G D91L,not detected,0 of 3,3 of 9
G24Q S88K S89Y,not detected,0 of 3,1 of 9
N52C S93K G94A,1.6 µM,2 of 3,2 of 9
Y29K G49F N52H,27 µM,3 of 3,5 of 9
Y31W N52P G94M,not detected,0 of 3,0 of 9
L27Y S92R V97I,not detected,0 of 3,1 of 9
R53P S88V Q96A,2.8 µM,2 of 3,3 of 9
S26A N33M N51G,120 nM,3 of 3,3 of 9
A32S N51I P54E,34 µM,1 of 3,5 of 9
G24E L27C P54R,not detected,0 of 3,1 of 9
E23D S26N N33Q,26 µM,2 of 3,1 of 9
G49Q R90N F95P,19 µM,1 of 3,3 of 9
R28T Y31F,260 nM,3 of 3,2 of 9
Y29N Y30D S88A,100 nM,3 of 3,1 of 9
L27N N51M P54S,1.7 µM,2 of 3,3 of 9
S26K Y31Q S92F,4.0 µM,3 of 3,3 of 9
N33H R53Y,55 µM,2 of 3,4 of 9
S26H N52Q S89I,60 nM,3 of 3,3 of 9
N33Q S55F F98W,8.3 µM,3 of 3,2 of 9
S55G S92H G94K,4.0 µM,3 of 3,6 of 9
N52G S88G D91R,3.2 µM,3 of 3,5 of 9
Y31D R53W P54K,860 nM,2 of 3,3 of 9
R28K A32K F98M,850 nM,3 of 3,0 of 9
N33T K50W R53K,not detected,0 of 3,1 of 9
G49L D91V,13 µM,1 of 3,2 of 9
Y30H R90F S93Y,6.0 nM,3 of 3,1 of 9
Y29A A32W S88R,not detected,0 of 3,0 of 9
Y29M K50G G94H,430 nM,3 of 3,4 of 9
N51M N52L F95I,3.9 µM,2 of 3,3 of 9
A32Y S88P R90C,5.5 µM,1 of 3,1 of 9
D25Y Y31W A32S,870 nM,3 of 3,0 of 9
G49M G94H F98S,30 µM,2 of 3,4 of 9
Y29K P54M,220 nM,3 of 3,4 of 9
S88L D91P,330 µM,2 of 3,4 of 9
R28P N33T G49C,38 µM,2 of 3,2 of 9
P54M S93L F98Q,1.3 µM,2 of 3,2 of 9
D25T R90I D91A,not detected,0 of 3,1 of 9
N51K S88Q S93I,not detected,0 of 3,0 of 9
L27K N51V R53K,not detected,0 of 3,1 of 9
P54F F95A Q96M,2.5 µM,1 of 3,1 of 9
G24S Y30H K50D,5.6 nM,3 of 3,5 of 9
E23H D25C D91A,3.3 µM,1 of 3,3 of 9

Extract of 4 entries:

changes,Kd (apparent),detected,empty controls
P54G D91N Q96M,7.3 µM,1 of 3,4 of 9
S26Y R53G Q96P,not detected,0 of 3,2 of 9
D25Y Y31W A32S,870 nM,3 of 3,0 of 9
L27Y S92R V97I,not detected,0 of 3,1 of 9

Parent in this assay: reference entry 200 nM, copy in this library 180 nM.